The entries are a selection whose mix differs from that of the whole data set. Some tests of the compounds listed are not included; inactive here does not mean inactive elsewhere. Active and inactive are the calls of the source. Rule as the data show it: active = inhibition above about 34%; inactive = the rest.

The chains behind the UniProt entries cited, without tags or fusion partners.
UniProt Q8NCG7, whole entry: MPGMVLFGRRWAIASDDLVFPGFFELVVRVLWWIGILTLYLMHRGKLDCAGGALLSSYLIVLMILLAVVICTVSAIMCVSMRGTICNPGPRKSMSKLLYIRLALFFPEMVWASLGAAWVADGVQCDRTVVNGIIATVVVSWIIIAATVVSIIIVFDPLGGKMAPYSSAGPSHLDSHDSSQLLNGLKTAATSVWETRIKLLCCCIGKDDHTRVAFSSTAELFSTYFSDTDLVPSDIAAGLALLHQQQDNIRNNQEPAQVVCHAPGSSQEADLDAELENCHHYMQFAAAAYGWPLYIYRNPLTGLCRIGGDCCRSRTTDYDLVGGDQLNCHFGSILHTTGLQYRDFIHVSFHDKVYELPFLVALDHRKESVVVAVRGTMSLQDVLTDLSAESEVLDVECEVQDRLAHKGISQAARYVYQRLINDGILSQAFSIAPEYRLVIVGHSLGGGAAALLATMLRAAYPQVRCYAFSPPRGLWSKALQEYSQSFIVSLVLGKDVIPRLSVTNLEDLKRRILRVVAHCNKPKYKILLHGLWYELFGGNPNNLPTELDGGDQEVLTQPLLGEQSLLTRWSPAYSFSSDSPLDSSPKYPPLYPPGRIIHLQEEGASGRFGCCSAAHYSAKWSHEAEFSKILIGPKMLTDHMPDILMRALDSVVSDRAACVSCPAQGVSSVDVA

Usually inhibition stands for the relative decrease from the control value, in per cent.

The assay deals with Diacylglycerol lipase-beta (Homo sapiens) (UniProt Q8NCG7). The assay is described as follows: inhibition of human DAGLB hydrolase activity – biochemical, fluorescence, HTS, primary screen (AID 504411).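 Also: 0% = enzyme with vehicle and 100% = wells lacking enzyme.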 The following applies: HEK293T DAGLB membrane lysate, EnzChek fluorogenic substrate; at 5.17 µM; hits give high values.
As for `CN(C)C1(CNC(=O)c2ccc(Br)cc2)CCCCC1`, the inhibition was inactive: -3.26%. On to `COc1cc(C(=O)NCC2(N(C)C)CCCCC2)c([N+](=O)[O-])cc1OC`, for which the inhibition was inactive: -2.97%. As to `COc1cccc(C(=O)NCC2(N3CCCCC3)CCCCC2)c1`, the inhibition was inactive: -1.31%. For `COc1ccc(Cl)cc1C(=O)NCC1(N(C)C)CCCCC1`, the inhibition is inactive: 0.53%.

As for `O=C(NCC1(N2CCCCC2)CCCCC1)c1cccc(Cl)c1`, the inhibition was inactive: -5.13%. As to `O=C(OC1CN2CCC1CC2)C(CO)(c1ccccc1)c1ccccc1` (stereo unspecified), the inhibition was inactive: -3.22%. `COc1ccc(Br)c(C(=O)NCC2(N3CCCCC3)CCCCC2)c1`: the inhibition is inactive: 2.93%.

With `C=C(C)C#CC(O)(C(=O)OC1CCN(C)CC1)c1ccccc1` (stereo unspecified), the inhibition is inactive: 1.21%. In the case of `CN(C)c1cccc(C(=O)NCC2(N(C)C)CCCCC2)c1`, the inhibition is inactive: 0.19%.

Take `CC(C)Oc1ccc(C(=O)NCC2(N(C)C)CCCCC2)cc1`: the inhibition is inactive: -0.34%. For `O=C(OCCN1CCCC1)C(O)(c1ccccc1)c1ccccc1`, the inhibition was inactive: 1.56%.

Consider `O=C(NCC1(N2CCCCC2)CCCCC1)c1cc([N+](=O)[O-])ccc1Cl`, for which the inhibition is inactive: -0.24%. As for `CN1[C@@H]2CC[C@H]1CC(OC(=O)C(O)(c1ccccc1)c1ccccc1)C2` (stereo partly specified), the inhibition is inactive: 0.23%. Regarding `CC(C)N1C(=O)CC2(CCN(CCOC(=O)C(O)(c3ccccc3)c3ccccc3)CC2)C1=O`, the inhibition is inactive: -2.38%.

For the compound `CCN(CC)CC(C)C(C)OC(=O)C(O)(c1ccccc1)c1ccccc1` (stereo unspecified), the inhibition is inactive: 0.66%. For the compound `COc1cc(SC)ccc1C(=O)NCC1(N(C)C)CCCCC1`, the inhibition is inactive: -2.98%.

On to `Cc1ccc(C(=O)NCC2(N3CCCCC3)CCCCC2)cc1`, for which the inhibition was inactive: 0.53%. On to `Cc1ccccc1C(=O)NCC1(N2CCCCC2)CCCCC1`, for which the inhibition is inactive: -5.26%. In the case of `CN(C)c1ccc(C(=O)NCC2(N(C)C)CCCCC2)cc1`, the inhibition was inactive: 0.23%.

In the case of `CN(C)C1CCCC1OC(=O)C(O)(c1ccccc1)c1ccccc1` (stereo unspecified), the inhibition was inactive: 0.77%. The same measure for `C=CCN1CCN(CCOC(=O)C(O)(c2ccccc2)c2ccccc2)CC1`: inactive: -1.35%; for `O=C(NCC1(N2CCCCC2)CCCCC1)c1cc(F)c(F)cc1Cl`: inactive: 1.93%. Turning to `CCN1CCCC(OC(=O)C2(O)c3ccccc3C=Cc3ccccc32)C1` (stereo unspecified), the inhibition was inactive: -0.23%. The figure for `Cc1cc(C(=O)NCC2(N3CCCCC3)CCCCC2)ccc1[N+](=O)[O-]` is inactive: -1.29%; for `O=C(NCC1(N2CCCCC2)CCCCC1)c1cccc(Br)c1` it is inactive: 0.83%; for `COc1ccc(C(=O)NCC2(N(C)C)CCCCC2)cc1` it is inactive: -4.79%.

The values are drawn from PubChem BioAssay AID504411 (The Scripps Research Institute Molecular Screening Center, 2011).
